Experiment: Cytotoxicity, Ba/F3 cells
Format: cell-based, murine
Settings: mouse

For `CC1=C[C@H]2O[C@@H]3C[C@H]4OC(=O)/C=C\C=C\C(=O)OCC/C(C)=C/C(=O)OC[C@@]2(CC1)[C@]4(C)[C@]31CO1` [Verrucarin J], which CC50 at 3 days is on record?
Its CC50 at 3 days is 29 nM.

Source: article PMC3220786 (ACS Chemical Biology, 2011)
